This note sets out measurements from US20220411487A1 (Regeneron, published 2022).

Test [1] concerns the target T1, full-length mouse TMPRSS6 with a C-terminal triple myc tag on HEK293.hHJV cells (HEK293.hHJV/3xMyc.mTMPRSS6) (mouse, UniProt Q9DBI0 1-811).
T1 sequence: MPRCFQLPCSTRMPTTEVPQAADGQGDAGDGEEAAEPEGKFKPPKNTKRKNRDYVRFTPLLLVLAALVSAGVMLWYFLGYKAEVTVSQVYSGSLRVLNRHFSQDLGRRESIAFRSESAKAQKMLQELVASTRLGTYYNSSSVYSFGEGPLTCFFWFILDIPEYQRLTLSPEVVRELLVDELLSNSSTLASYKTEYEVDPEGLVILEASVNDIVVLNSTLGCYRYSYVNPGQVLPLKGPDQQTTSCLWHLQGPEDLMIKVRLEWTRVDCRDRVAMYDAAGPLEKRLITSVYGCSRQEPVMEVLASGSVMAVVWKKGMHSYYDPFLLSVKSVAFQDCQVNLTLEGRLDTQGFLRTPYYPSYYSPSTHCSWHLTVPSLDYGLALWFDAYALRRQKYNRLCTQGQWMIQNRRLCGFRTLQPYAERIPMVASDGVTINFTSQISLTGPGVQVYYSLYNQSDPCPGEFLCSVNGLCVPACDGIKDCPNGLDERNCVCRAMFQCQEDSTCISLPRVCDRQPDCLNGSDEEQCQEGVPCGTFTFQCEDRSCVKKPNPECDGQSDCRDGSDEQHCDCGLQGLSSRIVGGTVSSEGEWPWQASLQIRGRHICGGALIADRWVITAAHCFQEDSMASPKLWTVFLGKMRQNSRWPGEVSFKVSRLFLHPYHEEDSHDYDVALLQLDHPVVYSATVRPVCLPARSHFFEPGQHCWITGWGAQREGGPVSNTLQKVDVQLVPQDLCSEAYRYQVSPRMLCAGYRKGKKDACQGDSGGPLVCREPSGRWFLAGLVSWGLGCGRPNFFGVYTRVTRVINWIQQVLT
Kind of test: cell-based or functional assay.

The target of test [2] is T2, full length human TMPRSS6 with a C-terminal triple myc tag on HEK293.hHJV cells (HEK293.hHJV/3xMyc.hTMPRSS6) (human, UniProt Q8IU80 1-811).
T2 sequence: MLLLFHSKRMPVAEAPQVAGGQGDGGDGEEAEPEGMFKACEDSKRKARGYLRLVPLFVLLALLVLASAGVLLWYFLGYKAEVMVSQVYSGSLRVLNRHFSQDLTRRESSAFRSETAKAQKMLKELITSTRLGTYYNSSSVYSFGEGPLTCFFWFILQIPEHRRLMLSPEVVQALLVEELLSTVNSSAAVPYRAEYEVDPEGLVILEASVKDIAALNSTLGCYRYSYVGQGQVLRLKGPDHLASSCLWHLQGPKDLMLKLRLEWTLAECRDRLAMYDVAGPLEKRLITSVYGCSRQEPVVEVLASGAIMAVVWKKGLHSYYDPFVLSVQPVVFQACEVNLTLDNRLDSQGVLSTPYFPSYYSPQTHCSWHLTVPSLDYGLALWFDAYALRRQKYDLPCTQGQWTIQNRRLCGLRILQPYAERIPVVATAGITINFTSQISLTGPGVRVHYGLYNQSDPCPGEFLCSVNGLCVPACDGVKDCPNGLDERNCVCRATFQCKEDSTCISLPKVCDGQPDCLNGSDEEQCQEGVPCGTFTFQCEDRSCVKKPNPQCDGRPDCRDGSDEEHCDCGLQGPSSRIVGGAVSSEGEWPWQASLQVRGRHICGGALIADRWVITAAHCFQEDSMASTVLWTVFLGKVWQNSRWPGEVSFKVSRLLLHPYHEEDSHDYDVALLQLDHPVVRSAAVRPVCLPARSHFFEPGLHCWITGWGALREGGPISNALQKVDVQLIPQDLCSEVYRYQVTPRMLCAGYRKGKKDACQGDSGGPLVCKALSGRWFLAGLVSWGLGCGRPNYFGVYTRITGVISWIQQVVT
Nature of the test: cell-based or functional assay.

B1: REGN7973 (antibody, human IgG4 S228P, kappa, V domains shown)
VH: EVQLVESGGGLVKPGGSLRLSCAASGFTFSNAWMSWVRQAPGKGLEWVGRIKSKTDSGTTDYAAPVKGRFTISRDDSKNTLYLQMNSLKTEDTAVYYCTTVDNDFWSGYYNWFDPWGQGTLVTVSS
VL: [gap - about 100 residues]
notes: fully human; human IgG4 Fc with hinge S108P; also called mAb37777
B1: the “Geometric Mean Fluorescence Intensity of cell surface hHJV, 50 nM mAb” value in test [1] was found to be 8190; in test [2] it was 46100. The “Median Fluorescence Intensity of cell surface hHJV, 50 nM mAb” value in test [1] is 7440; in test [2] it was 63500.
